{"source": "patent US10500274B2", "about": "“Methods for reducing viral load in HIV-1 infected patients” (CytoDyn Inc., priority 2008, dated 2019)", "key": {"[1]": {"system": "HIV-1JR-FL envelope-mediated membrane fusion", "conditions": "in combination with PRO 140"}, "[2]": {"system": "reporter viruses pseudotyped with HIV-1JR-FL envelope (U87-CD4-CCR5 cells)", "conditions": "in combination with PRO 140; both HIV-1JR-FL and HIV-1SF162 pseudoviruses, 50% and 90% inhibition"}}, "data": [{"smiles": "COC[C@@H](c1ccc(C(F)(F)F)cc1)N1CCN(C2(C)CCN(C(=O)c3c(C)ncnc3C)CC2)C[C@@H]1C", "note": "[SCH-D, 1-[(4,6-dimethyl-5-pyrimidinyl)carbonyl]-4-[4-[2-methoxy-1(R)-4-(trifluoromethyl)phenyl]ethyl-3(S)-methyl-1-piperazinyl]-4-methylpiperidine]", "values": [{"measurement": "CI values (50% and 90% inhibition)", "setting": "[1]", "result": "Potent synergy"}, {"measurement": "CI values", "setting": "[2]", "result": "potently synergized"}]}]}
